AlphaSeq binding of Ab-14 heavy chain variants to a spike HR2 peptide

All variants were tested on one target, the spike HR2 peptide PDVDLGDISGINAS (SARS-CoV-2).

Ab-14 is the parent antibody, in scFv form: VH, then the linker GGGGSGGGGSGGGGS, then VL. The light chain is unchanged in all variants.
VH: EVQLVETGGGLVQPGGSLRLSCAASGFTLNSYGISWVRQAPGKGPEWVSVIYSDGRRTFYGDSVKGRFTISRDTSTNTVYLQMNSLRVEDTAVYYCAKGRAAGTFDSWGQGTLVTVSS
VL: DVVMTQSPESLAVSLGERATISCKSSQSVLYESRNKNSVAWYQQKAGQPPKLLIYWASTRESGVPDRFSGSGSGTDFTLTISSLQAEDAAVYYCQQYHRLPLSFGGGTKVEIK

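The parent was found by panning a naive human phage display library on the peptide. The variants were designed computationally from a first round of random CDR variants and then made and measured. Their group label is 14H_En_HC (En: ensemble of fine-tuned language models; HC: hill climbing; a sequence that several methods proposed may carry one label only). In AlphaSeq, yeast of one mating type display the scFv and yeast of the other type display the target. Binding brings cells together so that they mate, and sequencing counts the barcode pairs among the diploids. Read counts were normalised to the haploid input and turned into Kd by a linear fit to BCL2-family pairs of known affinity, for each replicate. Mating was done six times.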

Variants are written as CDR1, CDR2 and CDR3 of the heavy chain (limits as in the source). Parent: GFTLNSYGIS, VIYSDGRRTFYGDSVK, GRAAGTFDS. The read-out is the apparent dissociation constant on a log10 scale (nM): the lower, the stronger. "n.d." means that the variant was in the library but no mating with the target was seen in that replicate; the authors take this as a sign of poor binding, and no number exists. Background: pairings of all heavy chain designs with three empty control strains gave a value in 1% of cases (median 2.08, 5th percentile 0.84). Values in that range, when seen in few replicates, are hard to tell from nonspecific mating. Also given: how often the same scFv was detected with the empty control strains, with their mean in brackets.

CDR-H1	CDR-H2	CDR-H3	log10 Kd (nM) by replicate	control signals
GFDLNEYGIS	VIYADGRRTFYSDSVK	GNNGGTFDM	-0.13 -0.49 0.81 -0.35 0.68 0.21	0/18
GFDLNEYGIS	VIYADGRRTAYSDSVK	GEAGGTFDI	0.08 -0.46 -0.18 -0.31 -0.31 -0.03	0/18
GFDINEYGIS	VIYADGRRTAYADSVK	GEAAGTFDV	-0.48 -0.54 -0.71 -0.58 -0.61 -0.28	0/18
GFDLNEYGIS	VIYADGRRTFYTDNVK	GENAGTFDV	-0.39 -0.37 -0.54 -0.55 -0.73 -0.15	1/18 (1.60)
GFDLNEYGIS	VIYADGRRTFYADSVK	GNVAGTFFS	-0.37 -0.56 -0.42 -0.53 -0.70 -0.42	1/18 (1.68)
GFDLNEYGIS	VIYADGRRTFYADSVK	GHVAGTFVV	0.06 -0.43 -0.30 -0.45 -0.44 -0.19	0/18
GFNLNEYGIS	VIYADGRRTAYADSVK	GGAAGTFDV	2.04 0.75 0.13 0.16 0.39 0.87	0/18
GFDLNEYGIS	VIYADGRRTFYADSVK	GEEAGTFNM	-0.39 -0.41 -0.60 -0.77 -0.81 -0.99	1/18 (1.50)
GFNLDEYGIS	VIYADGRRKFYADSVK	GNTAGTFDV	-0.74 -0.89 -0.73 -1.26 -0.86 -0.65	0/18
GFDLNEYGIS	VIYADGQRTFYTDSVK	GEVAGTFDV	-0.11 -0.57 -0.55 -0.43 -0.49 -0.68	0/18
GFDLNEYGIS	VIYADGQRTFYADSVK	GNLAGTFDQ	-0.25 -0.41 -0.44 -0.29 -0.34 -0.42	0/18
GFDLNEYGIS	VIYADGIRTAYSDSVK	GGNAGFFDQ	n.d. n.d. n.d. n.d. n.d. n.d.	1/18 (1.18)
GFDLDEYGIS	VIYADGQRTFYADSVK	GEAAGTFDS	0.17 0.03 -0.07 -0.13 -0.04 0.07	0/18
GFDINEYGIS	VIYADGRRTFYADSVK	GETAGTFDS	-0.31 0.09 -0.88 0.26 -0.76 -0.70	0/18
GFDLNEYGIS	VIYADGRRTFYSDSVK	GEAAGTFDI	-0.12 -0.40 -0.82 -1.02 -0.35 -0.56	0/18
GFDLNEYGIS	VIYADGRRTFYVDSVK	GEAAGTFDV	0.79 0.77 0.68 0.49 0.58 0.67	0/18
GFDLNEYGIS	VIYADGRRTFYKDSVK	GEVAGTFDQ	-0.04 -0.19 -0.35 -0.19 -0.32 0.79	0/18
GFDLNEYGIS	VIYADGRRTFYADSVK	GQLAGTFDD	-0.64 -0.06 -0.59 -0.77 -0.80 -0.51	0/18
GFDLNEYGIS	VIYADGRRTFYIDSVK	GEAAGTFDI	-0.93 -0.54 -0.40 0.57 -0.35 0.02	0/18
GFDLNEYGIS	VIYADGRRTFYSDSVK	GEIAGTFNQ	-0.32 -0.20 -0.56 -0.72 -0.41 -0.17	1/18 (1.21)
GFDLNEYGIS	VIYADGRRTQYIDSVK	GNVAGTFDV	0.21 0.14 -0.24 -0.29 0.09 -0.15	0/18
GFDLNEYGIS	VIYADGRRTAYTDDVK	GEVAGTFDL	-0.41 -0.49 -0.57 -0.44 -0.44 -0.52	0/18
GFDLNEYGIS	VIYADGRRTFYSDSVK	GTVGGTFDM	-0.12 -0.80 -0.68 -1.14 -0.80 -0.33	0/18
GFDLNEYGIS	VIYADGRRTGYADSVK	GQLAGTFDT	-0.61 -0.81 -0.96 -1.00 -0.94 -0.83	0/18
GFDLNEYGIS	VIYADGKRTFYADSVK	GNVAGTFFS	-0.14 -0.12 -0.16 -0.24 -0.16 -0.37	0/18
GFNLDEYGIS	VIYADGRRTFYADSVK	GQVAGTFDE	-0.38 -0.52 -0.38 -0.66 -0.31 -0.17	0/18
GFDLNEYGIS	VIYADGMRTFYADSVK	GEIAGTFDV	-0.38 -0.42 -0.38 -0.69 -0.43 -0.46	0/18
GFDLNEYGIS	VIYADGRRTFYSDSVK	GNNAGTFDM	-0.14 -0.50 -0.53 -0.91 -0.83 -0.08	0/18
GFDINEYGIS	VIYADGRRTFYTDSVK	GGNAGTFDM	-0.23 -0.71 -0.51 -0.45 -0.73 -0.36	1/18 (2.37)
GFDLNEYGIS	VIYADGQRSFYADSVK	GQNAGTFDV	0.00 0.17 -0.46 -0.30 -0.19 0.23	0/18
GFDLNEYGIS	VIYADGRRTFYSDSVK	GQNGGTFDM	0.68 0.20 -0.28 -0.20 0.15 0.24	1/18 (2.43)

Picked from the list: the 5 lowest averages where every replicate gave a value.

| CDR-H1 | CDR-H2 | CDR-H3 | log10 Kd (nM) by replicate | control signals |
|---|---|---|---|---|
| GFDLNEYGIS | VIYADGRRTGYADSVK | GQLAGTFDT | -0.61 -0.81 -0.96 -1.00 -0.94 -0.83 | 0/18 |
| GFNLDEYGIS | VIYADGRRKFYADSVK | GNTAGTFDV | -0.74 -0.89 -0.73 -1.26 -0.86 -0.65 | 0/18 |
| GFDLNEYGIS | VIYADGRRTFYADSVK | GEEAGTFNM | -0.39 -0.41 -0.60 -0.77 -0.81 -0.99 | 1/18 (1.50) |
| GFDLNEYGIS | VIYADGRRTFYSDSVK | GTVGGTFDM | -0.12 -0.80 -0.68 -1.14 -0.80 -0.33 | 0/18 |
| GFDLNEYGIS | VIYADGRRTFYADSVK | GQLAGTFDD | -0.64 -0.06 -0.59 -0.77 -0.80 -0.51 | 0/18 |

The authors' rule: three or more of the six replicates give a measured affinity, fewer mean a poor binder. A sequence measured in both rounds can read differently, since the two assays cover different ranges.

Values reported by Li et al. 2023, doi:10.1038/s41467-023-39022-2 (FLAb copy).